Test results: patent US20220023399A1, “BLOOD COMPONENT POTENTIATION OF LYTIC PROTEIN ANTI-BACTERIAL ACTIVITY AND METHODS AND USES THEREOF” (priority 2017, published 2022)

Test system: staphylococci (strain not given)
Assay: Checkerboard analysis of PlySs2/CF-301 with AMPs, antimicrobial proteins and albumins in heat-inactivated human serum
Format: cell-based, S. aureus
Details: in combination with PlySs2/CF-301

Substance | ΣFICavg
Serum albumin (Human, fraction V): human serum albumin, fraction V | ≤0.086
Serum albumin (Human, recombinant): human serum albumin, recombinant | ≤0.1
Serum albumin (Mouse, from serum): mouse serum albumin from serum | ≥1.16
Serum albumin (Mouse, recombinant): mouse serum albumin, recombinant expressed in yeast | ≥1.16
